# Antibody variant affinities, Ab-14 light chain, assay B

Source: Li et al. 2023 (doi:10.1038/s41467-023-39022-2), MIT Lincoln Laboratory and A-Alpha Bio; data file from the FLAb repository.

All variants were tested on one target, the spike HR2 peptide PDVDLGDISGINAS (SARS-CoV-2).

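This is the validation round: designs drawn from the data on random variants, tested in the same kind of assay. Their group label is 14L_En_HC (En: ensemble of fine-tuned language models; HC: hill climbing; a sequence that several methods proposed may carry one label only). The assay is AlphaSeq: two haploid yeast populations carry antibody and antigen on their surface. The frequency of each diploid, read from paired DNA barcodes, reflects how well the two displayed proteins bind. Read counts were normalised to the haploid input and turned into Kd by a linear fit to BCL2-family pairs of known affinity, for each replicate. Each pool was mated in six replicate cultures.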

The variants keep the heavy chain, the linker and the frameworks of Ab-14 (scFv order VH, a 15-residue (Gly4Ser)3 linker, VL).
VH: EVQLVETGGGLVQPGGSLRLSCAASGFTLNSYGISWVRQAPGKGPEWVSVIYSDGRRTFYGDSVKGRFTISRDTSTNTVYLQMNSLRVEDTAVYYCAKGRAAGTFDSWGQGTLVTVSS
VL: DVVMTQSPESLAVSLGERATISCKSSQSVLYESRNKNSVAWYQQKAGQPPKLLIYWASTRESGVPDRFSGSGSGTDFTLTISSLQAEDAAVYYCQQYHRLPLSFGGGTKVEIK

Variants are written as CDR1, CDR2 and CDR3 of the light chain (limits as in the source). Parent: KSSQSVLYESRNKNSVA, WASTRES, QQYHRLPLS. Affinities are written as log10 Kd with Kd in nM; a lower number is a better binder. A mean of the replicates is given; it leaves out those without a signal. An entry "n.d." has no value in the source: the pair was not observed among the diploids in that replicate. This suggests poor binding but is not conclusive. Of ten entries with the parent sequence, four were seen in most replicates (averages 0.34 to 2.37), three in one and three in none, so single entries are noisy. As a blank, each scFv also met three strains without target: over all light chain designs, 4% of these pairings were detected, typically at 2.64 and seldom below 1.59. For each scFv, signals with the empty controls are counted beside the result, with their mean in brackets. In the paper, a design with two or fewer of six values counts as a poor binder. A sequence measured in both rounds can read differently, since the two assays cover different ranges.

| CDR-L1 | CDR-L2 | CDR-L3 | log10 Kd, replicates | log10 Kd (nM), mean | control signals |
|---|---|---|---|---|---|
| TLMQVGGYEMNQHNSIA | DLRTRED | QQYHRLPLS | 0.68 / 0.86 / 1.33 / 1.12 / 0.71 / 1.07 | 0.96 | 2/18 (2.25) |
| KISSLTMYESVAKNNIA | EMTTRPE | QSYHRLPLS | 1.12 / 1.25 / 0.88 / 1.59 / 1.09 / 1.05 | 1.16 | 2/18 (2.22) |
| MISDMGLHDSRLQNSVA | NNSTREA | QQYHRLPLS | 2.19 / 1.41 / 0.12 / 1.61 / 1.14 / 1.66 | 1.35 | 1/18 (2.07) |
| KISQMVNFESTHIQAVA | QMSTREE | QQYFRLPLS | 0.55 / 0.71 / 0.35 / 0.55 / 0.82 / 0.76 | 0.62 | 0/18 |
| MISDLTMYGSRNKNSIA | DLSTRGS | QQYHRLPLS | -0.19 / -0.24 / -0.21 / -0.22 / -0.09 / -0.09 | -0.17 | 0/18 |
| TISTSANYESTKGNSVA | ELTTRGS | QQYERLPLS | 0.96 / 2.07 / 0.78 / 0.89 / 0.50 / 1.33 | 1.09 | 1/18 (1.80) |
| MISDLMLYGSRARNPIA | NAETREY | QQYHRLPLE | 0.40 / 0.58 / 0.51 / 0.41 / 0.73 / 0.61 | 0.54 | 2/18 (2.44) |
| HISMSMNFLSRNKNSIA | EESTRED | QQYHRLPLS | -0.37 / -0.54 / 0.07 / -0.52 / -0.64 / -0.15 | -0.36 | 0/18 |
| KISSMTLYESVNKNNIA | EMSTRPS | QSYHRLPLS | 1.16 / 1.59 / 1.26 / 1.08 / 1.10 / 1.42 | 1.27 | 1/18 (3.02) |
| TIGQMFWGESRNRNSVA | QASTRES | QSYDRLPLS | 1.25 / 0.98 / 1.07 / 1.01 / 1.12 / 1.22 | 1.11 | 1/18 (1.99) |
| KLSISMLHESINKHSVA | EVRTREE | QQYDRLPLS | 1.03 / 0.48 / 0.77 / 0.31 / 0.39 / 0.40 | 0.56 | 3/18 (2.27) |
| TLTQSVGMESHQKNSVA | DLSTRGS | QQYHRLPLS | 0.25 / 0.20 / 0.32 / 0.26 / 0.15 / 0.66 | 0.31 | 3/18 (2.88) |
| KLSMSYRMETEEKNSIA | ELVTRMS | QQYHRLPLS | n.d. / n.d. / n.d. / n.d. / n.d. / n.d. | n.d. | 0/18 |
| TIGPMLMTESKNKNNVA | GMQTRER | QQYHRLPLS | 0.42 / -0.18 / 0.07 / 0.17 / 0.12 / 0.12 | 0.12 | 0/18 |
| TLGDVTRQESNKKSNIA | DMSNRAA | QQYHRLPIS | 0.70 / 0.37 / 0.80 / 0.44 / 0.55 / 0.63 | 0.58 | 1/18 (2.59) |
| ALGDVMRMEHNKKNSIA | DMSTRES | QQYHRLPLS | 0.04 / -0.16 / -0.14 / -0.31 / -0.24 / -0.02 | -0.14 | 3/18 (2.50) |
| TISNSFMMENQFKNSVA | QASTREK | QCYDRLPLS | 2.40 / n.d. / n.d. / n.d. / 3.37 / n.d. | 2.89 | 1/18 (1.80) |
| KVGGVTNGISFSKNSVA | EQSTRED | QQYDRLPLS | 1.05 / 1.09 / 0.64 / 0.81 / 1.09 / 1.02 | 0.95 | 0/18 |
| KLLQNVRTEGRNRNNVA | HMDMRED | QQYWRLPLS | 0.88 / 1.16 / 0.88 / 0.34 / 0.70 / 0.79 | 0.79 | 2/18 (3.06) |
| TISQSVNMTSKGKNSVA | QAEMRES | QQYDRLPLS | n.d. / n.d. / n.d. / n.d. / n.d. / n.d. | n.d. | 0/18 |
| KLSQVTEYESRNKNNVA | DLSTRGQ | QDYHRLPLS | -0.23 / -0.35 / -0.47 / -0.26 / -0.32 / -0.28 | -0.32 | 2/18 (2.85) |
| KLGMSVGYESRNKSRVA | DNSTRES | QQYDRLPLS | n.d. / 2.20 / n.d. / n.d. / n.d. / n.d. | 2.20 | 1/18 (1.73) |
| KLSMSVRMESFVKDNVA | ENSTREA | QDYHRLPLS | n.d. / 1.88 / n.d. / 1.31 / n.d. / 2.36 | 1.85 | 0/18 |
| KLYQNVGTMSHNKQNIA | DMERRED | QQYHRLPLS | 0.76 / 0.83 / 0.51 / 0.35 / 0.44 / 0.55 | 0.57 | 0/18 |
| KISQSVNVGQKNKNSLA | EMSTREF | QDYHRLPLS | 1.44 / 1.81 / 1.12 / 1.96 / 1.85 / 1.70 | 1.65 | 0/18 |
| HLLQTVMYGQTRKNSVA | HAVTREN | QQYHRLPLS | n.d. / 2.26 / n.d. / 2.51 / 2.64 / n.d. | 2.47 | 0/18 |
| MISDLMLYGSRASNPIA | NAETREY | QQYHRLPLE | n.d. / 1.27 / n.d. / n.d. / n.d. / 1.79 | 1.53 | 0/18 |
| HISDLTMVASRNKNSVA | EESTRPD | QQYHRLPLS | 0.94 / 0.91 / 0.57 / 0.71 / 0.58 / 0.83 | 0.76 | 3/18 (2.29) |
| KISQMVTYESTWHNAIA | QTSEREE | QQYHHLPLS | 0.46 / 0.57 / 0.62 / 0.46 / 0.17 / 0.62 | 0.48 | 1/18 (2.34) |
| MFSQLTYTGSKARNAVA | QAETRVN | QQYHHLPLI | 0.92 / 1.21 / 0.76 / 0.93 / 0.98 / 1.43 | 1.04 | 2/18 (3.35) |
| KLYFNVGTMSHDKQSIA | DMERRED | QQYHRLPLS | 0.04 / 0.52 / 0.45 / 0.23 / -0.38 / 0.63 | 0.25 | 0/18 |
| KLREVQHVETKQKNNVA | DNSTRES | QDYYRLPLS | 0.12 / 0.61 / 0.60 / 0.48 / 1.54 / 1.07 | 0.74 | 0/18 |
| TVSQVHGMLTHNTNSVA | DMNTRGS | QQYDRLPLS | -0.13 / 0.24 / 0.21 / 0.04 / -0.14 / 0.32 | 0.09 | 1/18 (3.50) |
| KLMQVTGYESYVRNSVA | QMSTRAE | QDYNRLPLS | 0.96 / 0.57 / 0.35 / 0.09 / 1.72 / 0.97 | 0.78 | 0/18 |

From the list, the first 2 with no signal in any replicate:

{"CDR-L1": "KLSMSYRMETEEKNSIA", "CDR-L2": "ELVTRMS", "CDR-L3": "QQYHRLPLS", "log10 Kd, replicates": "n.d. / n.d. / n.d. / n.d. / n.d. / n.d.", "log10 Kd (nM), mean": "n.d.", "control signals": "0/18"}
{"CDR-L1": "TISQSVNMTSKGKNSVA", "CDR-L2": "QAEMRES", "CDR-L3": "QQYDRLPLS", "log10 Kd, replicates": "n.d. / n.d. / n.d. / n.d. / n.d. / n.d.", "log10 Kd (nM), mean": "n.d.", "control signals": "0/18"}